# Antibody variant affinities, Ab-14 light chain, assay 1

The target is the same throughout: PDVDLGDISGINAS, from the HR2 region of SARS-CoV-2 spike.

Ab-14 is the parent antibody, in scFv form: VH, then a 15-residue (Gly4Ser)3 linker, then VL. The heavy chain is unchanged in all variants.
VH: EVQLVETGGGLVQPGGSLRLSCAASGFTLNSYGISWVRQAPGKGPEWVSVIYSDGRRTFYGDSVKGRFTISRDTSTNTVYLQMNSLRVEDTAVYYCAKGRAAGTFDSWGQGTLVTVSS
VL: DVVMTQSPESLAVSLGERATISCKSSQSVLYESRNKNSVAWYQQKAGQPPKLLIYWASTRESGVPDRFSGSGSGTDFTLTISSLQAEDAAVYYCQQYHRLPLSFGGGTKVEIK

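The starting antibody came from a phage panning campaign against this peptide. In library AAYL50, one, two or three CDR residues were substituted; doubles and triples were drawn at random. Affinity was read by AlphaSeq, a pooled yeast mating assay with surface-displayed partners. Mating (16 h, 30 °C) was followed by selection of diploids and sequencing of their barcodes. Each replicate has its own calibration line, from reference interactions of the BCL2 family. Mating was done three times.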

Variants are written as CDR1, CDR2 and CDR3 of the light chain (limits as in the source). Parent: KSSQSVLYESRNKNSVA, WASTRES, QQYHRLPLS.
Affinities are written as log10 Kd with Kd in nM; a lower number is a better binder.
The mean shown is taken over the replicates in which the pair was detected.
"n.d." means that the variant was in the library but no mating with the target was seen in that replicate; the authors take this as a sign of poor binding, and no number exists.
For reference, the parent read 0.65 as the reference entry and 1.68 as a member of this library.
Empty control strains, which show no peptide, gave a signal in 18% of pairings with library AAYL50; the median was 4.19 and 95% of these signals were weaker than 2.99. No background was subtracted. Also given: how often the same scFv was detected with the empty control strains, with their mean in brackets.

CDR-L1,CDR-L2,CDR-L3,log10 Kd (nM) by replicate,mean log10 Kd (nM),signal with controls
KSSQSVLQESVNKNSVA,WASTRES,QQYHTLPLS,0.34 0.63 0.71,0.56,0 of 9
KSSQSVLQESRNKNSVA,WASDRES,QQYHRLPDS,n.d. 4.34 n.d.,4.34,5 of 9 (3.57)
KSSFSVLYESRNKNSVA,WSSTREM,QQYHRLPLS,1.74 1.61 1.93,1.76,0 of 9
KSSQSVLEESRNKNGVA,WASYRES,QQYHRLPLS,n.d. n.d. n.d.,n.d.,0 of 9
KSSQSVLVESRNKNSVA,WASTREP,QQYHRLPLK,1.66 1.86 1.89,1.80,0 of 9
KSSQSKLYESRNKNSVA,WASTRES,QQYHRLPLS,1.31 2.01 1.61,1.64,0 of 9
KSTQSVMYESRNKNSVN,WASTRES,QQYHRLPLS,n.d. n.d. n.d.,n.d.,2 of 9 (4.87)
KSSQSVGYESRNKNSVA,WASTRES,QQYHRLPRS,0.38 0.64 0.60,0.54,2 of 9 (5.64)
KSFQSWLYESRNKNSVA,WASTRES,QQYHRLPMS,n.d. 4.38 n.d.,4.38,3 of 9 (3.58)
KSSQSVLYESRAKNSVA,WASTRES,QQYNRLPLS,0.91 1.06 0.92,0.96,1 of 9 (2.70)
KWSQSVLYESRQKNSVA,WASTRES,QQYHRLPLS,0.83 1.03 1.03,0.96,1 of 9 (3.32)
KVSQSVLYESRNKNSVW,WMSTRES,QQYHRLPLS,n.d. n.d. n.d.,n.d.,1 of 9 (4.09)
KSSQVVQYESRNKNSVA,WASTRES,QLYHRLPLS,1.62 1.83 1.84,1.76,2 of 9 (4.50)
KSSQSVLYESDNKNCVA,WASTRES,QQKHRLPLS,n.d. n.d. n.d.,n.d.,0 of 9
KSSSSVLYESRNANSVA,WASTKES,QQYHRLPLS,1.54 1.37 1.55,1.49,1 of 9 (3.66)
KSSQSVLYNSRNKNSVA,WASTRES,FQYHRLPLS,3.34 3.44 3.54,3.44,4 of 9 (5.00)
KSNQSVLYDSRNKNSVA,WASMRES,QQYHRLPLS,0.62 0.82 0.69,0.71,5 of 9 (4.56)
KSSQSVLYESRNKNSVA,WASTTES,QQYVRLPLP,n.d. n.d. n.d.,n.d.,1 of 9 (3.20)
KSKQSVLYESRNKNSAA,RASTRES,QQYHRLPLS,2.42 2.48 3.28,2.73,1 of 9 (3.76)
KSSQSVLSEPRNTNSVA,WASTRES,QQYHRLPLS,0.67 0.81 0.66,0.71,1 of 9 (5.71)
KSSQSVLYEHRNKNSVA,WASTRES,QQYGRDPLS,2.89 3.01 4.54,3.48,2 of 9 (4.71)
KSSQSVLYESRNKNSVA,WARTRES,QQYHRLNLS,1.90 1.80 1.87,1.86,3 of 9 (3.77)
KSSQSVLYESRNYQSVW,WASTRES,QQYHRLPLS,n.d. n.d. n.d.,n.d.,0 of 9
KSSQSVLYESRNKNSVA,WASTRES,QQYIRCPTS,n.d. n.d. n.d.,n.d.,0 of 9
KSSCSVLYESRNENSVA,WASTRES,QQYNRLPLS,1.67 1.64 1.57,1.63,2 of 9 (3.19)
KSAQSVLYESRNKNSVA,WASTRES,QQYHRLPLS,0.66 0.93 0.78,0.79,1 of 9 (3.64)
KSSQSVLYESRNKNSVA,WASTRSS,AQYHRLPLF,2.44 2.84 2.69,2.66,1 of 9 (5.21)
KSSQSVLYESRNKASVA,WASTRES,LQYHRLPLS,2.06 1.94 2.20,2.07,6 of 9 (4.59)
RSVQSVLYESRNKNSVA,WASTRES,QKYHRLPLS,n.d. n.d. 4.65,4.65,3 of 9 (4.44)
KSSQSVLYESRNKNSVK,WASTREG,QQYHRLPLS,n.d. 5.08 n.d.,5.08,3 of 9 (4.83)
KSSQSVLYESRNKNSVA,WASTREH,QAYQRLPLS,n.d. 3.95 n.d.,3.95,3 of 9 (4.12)
KSSQSVLYESRNKNSVA,WASMRES,HQDHRLPLS,3.50 3.38 3.31,3.40,0 of 9
KSWQSVLYESRNKNSVA,WQSTRES,QQYHRLWLS,n.d. n.d. n.d.,n.d.,1 of 9 (2.74)
KSSQSVLYESPNKNSHA,FASTRES,QQYHRLPLS,5.75 3.51 n.d.,4.63,1 of 9 (4.56)
KASQSVAYESRNKNDVA,WASTRES,QQYHRLPLS,1.40 1.62 1.47,1.50,0 of 9
KSSQSVLYESRNKNSVA,WASTRES,QQYHRLPIS,1.20 1.68 2.06,1.65,0 of 9
KSSQSVLYESRNKNSVA,WASTREL,QAYHSLPLS,3.22 3.02 n.d.,3.12,0 of 9

Top 5 of the variants detected in all replicates, tightest first:

{"CDR-L1": "KSSQSVGYESRNKNSVA", "CDR-L2": "WASTRES", "CDR-L3": "QQYHRLPRS", "log10 Kd (nM) by replicate": "0.38 0.64 0.60", "mean log10 Kd (nM)": "0.54", "signal with controls": "2 of 9 (5.64)"}
{"CDR-L1": "KSSQSVLQESVNKNSVA", "CDR-L2": "WASTRES", "CDR-L3": "QQYHTLPLS", "log10 Kd (nM) by replicate": "0.34 0.63 0.71", "mean log10 Kd (nM)": "0.56", "signal with controls": "0 of 9"}
{"CDR-L1": "KSSQSVLSEPRNTNSVA", "CDR-L2": "WASTRES", "CDR-L3": "QQYHRLPLS", "log10 Kd (nM) by replicate": "0.67 0.81 0.66", "mean log10 Kd (nM)": "0.71", "signal with controls": "1 of 9 (5.71)"}
{"CDR-L1": "KSNQSVLYDSRNKNSVA", "CDR-L2": "WASMRES", "CDR-L3": "QQYHRLPLS", "log10 Kd (nM) by replicate": "0.62 0.82 0.69", "mean log10 Kd (nM)": "0.71", "signal with controls": "5 of 9 (4.56)"}
{"CDR-L1": "KSAQSVLYESRNKNSVA", "CDR-L2": "WASTRES", "CDR-L3": "QQYHRLPLS", "log10 Kd (nM) by replicate": "0.66 0.93 0.78", "mean log10 Kd (nM)": "0.79", "signal with controls": "1 of 9 (3.64)"}

The measurements come from Engelhart et al. 2022 (doi:10.1038/s41597-022-01779-4) through the FLAb antibody collection.